Patent US10406238B2, “Ligand ionophore conjugates” (PURDUE RESEARCH FOUNDATION, priority 2015, dated 2019)

Tested on: KB cells
Experiment: Confocal microscopy for endosomal release in KB cells
Format: cell-based, human
Details: 200 nM 1 with 400 nM folate-Cy5 21-mer oligonucleotide 4, FIG. 4

For `CO[C@@H]1C[C@@H](C[C@H]2CC[C@H](C)C([C@@H](C)C(=O)OCCSSC[C@H](NC(=O)[C@H](CC(=O)O)NC(=O)[C@H](CC(=O)O)NC(=O)[C@H](CCCNC(=N)N)NC(=O)[C@H](CC(=O)O)NC(=O)CC[C@H](NC(=O)c3ccc(NCc4cnc5nc(N)[nH]c(=O)c5n4)cc3)C(=O)O)C(=O)O)O2)O[C@]2(O[C@@](C)(C3CC[C@@](C)([C@@H]4O[C@@H]([C@@H]5O[C@@](O)(CO)[C@H](C)C[C@@H]5C)C[C@@H]4C)O3)C[C@H]2C)[C@@H]1C` (stereo partly shown) [conjugate 1], the “time of swelling of smaller endosomes and release of Cy5 dye labeled oligonucleotide” value was 2 to 4 h.
